Measured values: patent publication US10570458B2, “Methods for diagnosis, prognosis and treatment of primary and metastatic basal-like breast cancer and other cancer types” (ONCONOSTIC TECHNOLOGIES, INC., priority 2009, dated 2020)

System: patients with primary infiltrating ductal breast cancer
Assay: Univariate Cox regression of 5 year overall survival in patient cohort
Assay type: in vivo, human
Protocol: Review of a prospectively acquired institutional database identified 904 patients with primary infiltrating ductal breast cancer diagnosed between Jan. 1, 1995 and Dec. 31, 2004.
All statistical analyses were performed using SAS (version 9.1.3, SAS, Cary, N.C.). Criteria used to determine positive or negative status of a specific biomarker were determined prior to performing any statistical analysis. Analysis of categorical variables was performed using χ^2 test and Fisher's exact test. The Mann-Whitney U test was employed to compare non-normal continuos variables. For survival analysis, overall survival (OS) was the outcome measure used. Survival time was calculated as the date of diagnosis until the date of death. Survival times were censored if the patient was still alive on Oct. 15, 2009 (the last date of update of the database). Univariate survival curves were generated by the Kaplan-Meier method (Bland et al. 1998) and significance determined using the log-rank test (Bland J M, Altman D G. The logrank test. BMJ 2004; 328:1073). Multivariate analysis was performed using Cox's proportional hazards analysis. For purposes of evaluating the prognostic significance of each of the above IHC biomarker panel definitions of BLBC, three separate models were constructed for the 3-biomarker, 5-biomarker and 4-biomarker definitions of BLBC. […]

## trastuzumab [Herceptin]
Univariate Cox regression, therapy yes vs. no, N 688
  Hazard ratio (95% CI), 5 year overall survival: 1.275 (0.462 3.524)
Univariate analysis, adjuvant treatment variable
  predictor of overall survival: not significant predictors of overall survival
